Earlier results on one substance are cited in PMC7615502.

Sequences of proteins named here, by UniProt entry; tags and fusion partners are left off. Residues count along the entry.
UniProt P01589, 22-240, chain 1 of 3: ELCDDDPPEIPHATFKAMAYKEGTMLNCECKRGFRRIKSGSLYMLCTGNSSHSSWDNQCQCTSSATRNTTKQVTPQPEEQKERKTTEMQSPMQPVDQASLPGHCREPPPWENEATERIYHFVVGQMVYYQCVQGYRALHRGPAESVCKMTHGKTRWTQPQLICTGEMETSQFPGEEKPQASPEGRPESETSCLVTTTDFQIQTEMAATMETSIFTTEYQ
UniProt P60568, 21-153: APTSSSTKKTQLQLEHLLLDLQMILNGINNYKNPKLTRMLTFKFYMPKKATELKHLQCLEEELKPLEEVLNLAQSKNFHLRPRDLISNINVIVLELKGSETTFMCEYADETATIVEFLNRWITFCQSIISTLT

This data set addresses IL-2Rαβγ (Homo sapiens) (UniProt P01589).

A word on the Kd: it is the free concentration of one partner at which half of the binding sites on the other are occupied at equilibrium, for simple one-to-one binding. For the substance IL-2 (from UniProt P60568), the Kd was 0.01 nM.
